Source: publication PMC10761686

Legend:
[1] = target: actin filaments (F-actin) of rabbit skeletal muscle actin with tropomyosin (TPM1), barbed ends capped by gelsolin (rabbit | rat) (UniProt P68135); assay: pyrene-actin polymerization assay; inhibition of pointed-end polymerization with 0.2 uM TPM1; by the methods gelsolin-to-actin 1:100, F-actin seeds 0.6 uM with 1 uM G-actin (10% pyrene-actin) in F-buffer, varying TMOD1; Kd = TMOD1 concentration for 50% maximal capping activity, one-phase exponential decay fit of relative initial rates
[2] = target: actin filaments (F-actin) of rabbit skeletal muscle actin with tropomyosin (TPM1), barbed ends capped by gelsolin (rabbit | rat) (UniProt P68135); assay: pyrene-actin depolymerization assay; inhibition of pointed-end depolymerization with 0.2 uM TPM1; by the methods gelsolin-to-actin 1:100, pyrene-F-actin seeds diluted to 0.6 uM in F-buffer, varying TMOD1; Kd = TMOD1 concentration for 50% maximal capping activity, one-phase exponential decay fit of relative initial rates
[3] = target: actin filaments (F-actin) of rabbit skeletal muscle actin with tropomyosin (TPM1), barbed ends capped by gelsolin (rabbit | rat) (UniProt P68135)

Substance: tropomodulin 1 (TMOD1), wild type, human, recombinant with N-terminal 6xHistidine-tag (from UniProt P28289-1 1-359) (natural protein)
- Kd [1]: 6.63 nM
- Kd [2]: 25.3 nM
- Supplementary Table 3: IC50 of inhibition of Lat A-induced actin pointed end depolymerization in the presence of TPM1, sedimentation assay, from actin band densities of the pellet [3]: 9.8 nM
- Supplementary Table 3: IC50 of inhibition of Lat A-induced actin pointed end depolymerization in the presence of TPM1, sedimentation assay, from actin band densities of the supernatant [3]: 11.1 nM

Substance: tropomodulin 1 (TMOD1) with the patient variant p.R189W, human, recombinant with N-terminal 6xHistidine-tag (from UniProt P28289-1 1-359) (natural protein)
- Kd [1]: 9.88 nM
- Kd [2]: 79.4 nM
- Supplementary Table 3: IC50 of inhibition of Lat A-induced actin pointed end depolymerization in the presence of TPM1, sedimentation assay, from actin band densities of the pellet [3]: 23 nM
- Supplementary Table 3: IC50 of inhibition of Lat A-induced actin pointed end depolymerization in the presence of TPM1, sedimentation assay, from actin band densities of the supernatant [3]: 35.1 nM
